GIV-Gai inh = GIV-Galpha-i interaction inhibition | P08753 | hit rate 0.42% among 210,000 | percent of control (FP), % (no concentration beside the values) | Galpha-i3/FITC-GIV peptide fluorescence polarization, 90 min; active compounds read low; scaled: aluminum fluoride 0%, vehicle 100%;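 active = replicate mean at 85% of control or lower, very high polarization wells dropped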;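 note: wells of about 15 µL received 100 nL stock; the first replicate is given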
HCMV NEC inh = cytomegalovirus nuclear egress complex inhibition. HTRF UL50-UL53 interaction, normalized percent inhibition. 0.15% of 190,000 active. AID 1918969. inhibition, % (no concentration beside the values); in the data active means inhibition above about 27%, passing the limit was not always enough
The depositor's hits bear a star; / = no result given. Rows were chosen to be rich in hits. Some 0.46% of all compounds tested hit in one or more screens of this group.

#	Molecule	GIV-Gai inh	HCMV NEC inh
1	Cc1ccc(NC(=O)C2OC3OC(C)(C)OC3C3OC(C)(C)OC23)cc1Cl (stereo not drawn)	106	/
2	O=C(c1ccc2c(=O)n(C3CCCCC3)c(SCc3cccc([N+](=O)[O-])c3)nc2c1)N1CCOCC1	108	/
3	COc1ccccc1OCCOc1c(Br)cc(C=C2C(=O)NC(=O)NC2=O)cc1OC	104	-1
4	COc1cc(C=C2C(=O)NC(=O)NC2=O)cc(Cl)c1OCCOc1ccccc1C	92	61*
5	COc1cc(C=C2C(=O)NC(=S)NC2=O)cc(Cl)c1OCCOc1ccccc1C	97	-16
6	COc1ccccc1OCCOc1c(Cl)cc(C=C2C(=O)NC(=O)NC2=O)cc1OC	106	63*
7	COc1cc(C=C2C(=O)NC(=O)NC2=O)cc(Br)c1OCC(C)C	105	87*
8	COc1cc(C=C2C(=O)NC(=O)NC2=O)ccc1OCC(C)C	98	-3
9	CCCN1CC=C2C(C1)C(c1ccc(C(=O)OC)cc1)C(C#N)=C(N)C2(C#N)C#N (stereo not drawn)	110	-56
10	CCN1CC=C2C(C1)C(c1ccc(Cl)s1)C(C#N)=C(N)C2(C#N)C#N (stereo not drawn)	-52*	-29
11	CCOC(=O)/C(C#N)=C/c1ccc(N2CCCCC2)o1	-74*	-148
12	N#C/C(=C\c1ccc(N2CCCCC2)o1)C(N)=O	197	-217
13	CCN1CC(Cn2cnc3c(C)c(C)ccc3c2=O)CC1=O (stereo not drawn)	/	-6
14	O=C(c1ccc(Nc2nn3c(=O)c4ccccc4nc3s2)cc1)N1CCc2ccccc2C1	101	56*
15	Cc1ccccc1Nc1nn2c(=O)c3ccc(C(=O)N4CCc5ccccc5C4)cc3nc2s1	103	-28
16	O=C(Oc1cccc2cccnc12)c1cc(C(F)(F)F)cc(C(F)(F)F)c1	99	/
17	CCOC(=O)C1CCCN(C(=O)Cn2c(=O)c3ccccc3n3c(=S)sc(-c4cccc(F)c4)c23)C1 (stereo not drawn)	77*	-36
18	CCOC(=O)C1CCCN(C(=O)Cn2c(=O)c3ccccc3n3c(=S)sc(-c4ccc(Cl)cc4)c23)C1 (stereo not drawn)	135	12
19	N#CCSc1n[nH]c(=O)n1-c1ccc(Cl)cc1	95	-2
20	COC(=O)c1ccc(C(=O)Nc2sc3c(c2-c2nc4ccccc4s2)CCN(C(C)C)C3)cc1	262	/
21	CC(=O)N1CCc2c(sc(NC(=O)C(C)C)c2-c2nc3ccccc3s2)C1	/	-17
22	CCN1CCc2c(sc(NC(=O)c3ccc(Cl)cc3)c2-c2nc3ccccc3s2)C1	-3.2*	/
23	CC(C)N1CCc2c(sc(NC(=O)C(C)(C)C)c2-c2nc3ccccc3s2)C1	-26*	/
24	CN1CCc2c(sc(NC(=O)c3nc4ccccc4s3)c2-c2nc3ccccc3s2)C1	96	/
25	CCN1CCc2c(sc(NC(=O)CSc3ccccc3)c2-c2nc3ccccc3s2)C1	169	/
26	COc1ccc(C(=O)Nc2sc3c(c2-c2nc4ccccc4s2)CCN(C(C)C)C3)cc1OC	-3.2*	/
27	CC(=O)Nc1sc2c(c1-c1nc3ccccc3s1)CCN(C(C)C)C2	-3.2*	/
28	CC1CCCN(S(=O)(=O)c2cc(C(=O)Nc3ccc(F)c(Cl)c3)n(C)c2)C1 (stereo not drawn)	107	-10
29	CCN1C(=O)/C(=C/c2c(NC(C)C)nc3ccccn3c2=O)SC1=S	293	-13
30	O=C1/C(=C/c2c(NCc3ccco3)nc3ccccn3c2=O)SC(=S)N1C1CCCCC1	109	/
31	CCNc1nc2ccccn2c(=O)c1/C=C1\SC(=S)N(Cc2ccco2)C1=O	-75*	-11
32	C=CCN1C(=O)/C(=C/c2c(NCC)nc3ccccn3c2=O)SC1=S	-33*	/
33	COc1ccc(CCN2C(=O)/C(=C/c3c(NCc4ccccc4)nc4ccccn4c3=O)SC2=S)cc1OC	139	/
34	C=CCN1C(=O)/C(=C/c2c(NCc3ccco3)nc3ccccn3c2=O)SC1=S	-83*	-14
35	CCn1c(CCc2cccc(NS(=O)(=O)c3cc(C)ccc3NC(C)=O)c2)nc2ccccc21	100	/
36	COc1cc(/C=C2/SC(=Nc3ccccc3C(F)(F)F)NC2=O)ccc1O	/	-8
37	CCc1cc(-c2csc(S(=O)(=O)N3CCN(Cc4ccc5c(c4)OCO5)CC3)c2)on1	104	/
38	Cc1cc(NC(=O)C2Nc3ccccc3S(=O)(=O)N2)ccc1Br (stereo not drawn)	109	-25
39	Cc1c(N=C/C=C2\N(C)c3ccccc3C2(C)C)c(=O)n(-c2ccccc2)n1C	/	-41
40	CN1/C(=C\C=C2\C(=O)Oc3ccccc3C2=O)C(C)(C)c2ccccc21	-32*	/
41	CC(C)c1ccc(C(=O)CC#N)cc1	/	-6
42	O=C1/C(=C/c2ccccc2)Nc2ccccc21	-102*	-72
43	O=C1Nc2ccccc2/C1=C/c1ccccc1	109	/
44	Cc1ccc(C(=O)OC2=C(c3ccccc3)C(=O)c3ccccc3C2=O)cc1	102	/
45	Cc1ccc(C(=O)OC2=CC(=O)c3ccccc3C2=O)cc1	84*	36
46	CC(C)(C)C(=O)[C@@H]1[C@@H](c2cccs2)C(C#N)(C#N)[C@H]2C=Cc3ccccc3N12	-45*	/
47	CC(C)(C)C(=O)[C@@H]1[C@@H](c2ccsc2)C(C#N)(C#N)[C@H]2C=Cc3ccccc3N12	123	/
48	CC(C)(C)c1ccc(C2CC(=O)C=C(O)C2)cc1 (stereo not drawn)	106	-17
49	COc1cc(OC)cc(-c2nc3ccccc3c(=O)n2OC(=O)c2cc(Cl)ccc2OC)c1	103	11
50	COc1ccccc1C(=O)On1c(C)nc2ccccc2c1=O	98	31*

The listing continues:
#	Molecule	GIV-Gai inh	HCMV NEC inh
51	CCCc1cc(=O)[nH]c(-n2nc(C)cc2NC(=O)C2CC(=O)N(c3ccc(Cl)cc3)C2)n1 (stereo not drawn)	98	-1
52	CCn1c2ccc(C)cc2c2nc(C)sc21	92	54*
53	Cc1nc2c3cc(F)ccc3n(CCN3CCOCC3)c2s1	102	28
54	Cn1c(=O)n(C)c2cc(NC3=C(C(=O)Nc4ccc(F)cc4)S(=O)(=O)c4ccccc43)ccc21	103	/
55	Cc1ccc2c3c(c(N)c(=O)[nH]c13)-c1ccccc1C2=O	76*	/
56	CCOC(=O)c1c2c3c(cccc3[nH]c1=O)C(=O)c1ccccc1-2	/	-53
57	Cc1ccc(CNCC(C)O)s1 (stereo not drawn)	100	4
58	O=c1oc2ccccc2cc1-c1nc(-c2cccs2)cs1	11*	/
59	Cc1ccc(-c2csc(-c3cc4ccccc4oc3=O)n2)cc1C	111	/
60	O=c1oc2cc(O)ccc2cc1-c1nnc(NC2CCCCC2)s1	-31*	/
61	COc1cccc2cc(-c3nnc(NC4CCCCC4)s3)c(=O)oc12	113	/
62	O=c1oc2ccc3ccccc3c2cc1-c1nc(-c2cccs2)cs1	116	/
63	O=c1oc2cc(O)ccc2cc1-c1nc(-c2ccc3ccccc3c2)cs1	-29*	/
64	O=C(O)COc1ccccc1/C=C1/C(=O)Nc2ccc(Cl)cc21	/	-54
65	CCc1ccc(S(=O)(=O)NCC(O)c2ccccc2)cc1 (stereo not drawn)	98	-9
66	Cc1nc(SCc2noc(CCC(=O)Nc3cc(F)cc(F)c3)n2)n[nH]1	102	/
67	COCCn1c(=NC(=O)c2ccccc2)sc2cc(S(C)(=O)=O)ccc21	/	-6
68	O=C(CCC(=O)c1ccccc1)OCc1ccccc1	100	-15
69	NS(=O)(=O)c1cc(C(=O)NCC(F)(F)F)ccc1Cl	/	-28
70	CCOc1ccc2c(c1)cc(C(=O)Nc1nccs1)n2C	101	12
71	O=C1CN(c2ccccc2)C(=Nc2ccccc2)S1	97	7
